Measurements from US20260384421A1, “NOVEL COMPOUNDS THAT CAN BE USED AS THERAPEUTIC AGENTS” (published 2026).
Like-named read-outs stand apart in the source and are kept apart here.

Experiments:
MDA-MB-231 cells = experiment: alamarBlue proliferation assay with MDA-MB-231 cells (glucose-free Leibovitz's L-15 medium)
Text: (§1) These hyperproliferative processes can be benign or malignant and include hyperplasia, neoplasia, cancer and pre-cancerous lesions, and metastases. The antiproliferative activities of compounds falling under general formula (I) were investigated on human primary epidermal keratinocytes (HPEK) and human, murine and canine cell lines derived from hyperproliferative tissue or different cancer types, including MDA-MB-231, ZR-75-30, HCC-1395, HCC-1937, and T-47D all originating from cancer of the breast, JURKAT, RPMI-8402, LOUCY, TANQUE, REC-1, HL-60, NB-4 all originating from different types of blood cancer including lymphoma and leukemia of T-cells, B-cells and myeloid cells, TT originating from cancer of the neuroendocrine system, HeLa originating from cancer of the cervix, 23132/87, SW-948, and HCT-116 all originating from cancer of the gastrointestinal tract including stomach and colon, BHY originating from cancer of the mucosal epithelium, A-431 originating from cancer of the skin, HEP-G2 originating from cancer of the liver, NCI-H460 and A-549 both originating from cancer of the lung, PANC-1 originating from cancer of the pancreas, U-87 MG originating from cancer of the brain, A-375 and RVH-421 both originating from cancer of melanocytes, SW-1353 originating from cancer of bone-derived chondrocytes, C2C12 a mouse cell line originating from hyperproliferative muscle progenitor cells, LL/2 a mouse cell line originating from cancer of the lung, CF21.T a dog cell line originating from cancer of the connective tissue. To this end, according cells were seeded into 96-well plates (CORNING #3598) suitable for fluorescence assays at following initial cell numbers: 1000 cells per well for HPEK; 3000 cells per well for MDA-MB-231, 8000 cells per well for ZR-75-30, 1500 cells per well for HCC-1395, 1500 cells per well for HCC-1937, 3000 cells per well for T-47D, 1500 cells per well for JURKAT, 5000 cells per well for RPMI-8402, 9000 cells per well for LOUCY, 1500 cells per well for TANQUE, 9000 cells per well for REC-1, 1000 cells per well for HL-60, 1000 cells per well for NB-4, 9000 cells per well for TT, 2000 cells per well for HeLa, 2000 cells per well for 23132/87, 9000 cells per well for SW-948, 700 cells per well for HCT-116, 1500 cells per well for BHY, 700 cells per well for A-431, 1500 cells per well for HEP-G2, 500 cells per well for NCI-H460, 1000 cells per well for A-549, 1500 cells per well for PANC-1, 2500 cells per well for U-87 MG, 700 cells per well for A-375, 1500 cells per well for RVH-421, 2000 cells per well for SW-1353, 500 cells per well for C2C12, 500 cells per well for LL/2, and 3000 cells per well for CF21.T. In a volume of 90 μL per well of culture medium the cells were treated with compounds at indicated final concentrations by adding 10 μL per well of 10× compound working solutions from 1:100 pre-diluted 1000× compound DMSO stock-solutions in H2O (Water For Injection, WFI, Fisher Scientific, Gibco™ #A12873) or with the empty carrier DMSO (AppliChem, #A3672) at 0.1% v/v as control yielding a final volume of 100 μL per well. At day 5 after starting the treatments the cells were subjected to the alamarBlue® Proliferation Assay (Bio-Rad Serotec GmbH, BUF012B) according to the protocol of the manufacturer. The readout was taken with a multi-well plate-reader (Tecan Spark®) in the fluorescence mode with applying a filter for excitation at 560 nm (band width 10 nm) and for emission at 590 nm (band width 10 nm). Treatment for maximum proliferation inhibition with the commercial cytotoxic compound (S)-(+)-camptothecin (Fluorochem #M01564) at a concentration of 10 μM was included on each plate for assay quality control. Some of the test compounds of the present invention may have been obtained and applied as their salt forms.
(§2) The assays were performed in duplicate or more replicates of independent single experiments each containing a three- to six-fold replicate for every condition. […]

A-431 cells = experiment: alamarBlue proliferation assay with A-431 cells; details: read-out: Activity on A-431: IC50, DMEM medium, 10% FBS
Text: as §1, §2

HEP-G2 cells = experiment: alamarBlue proliferation assay with HEP-G2 cells; details: read-out: Activity on HEP-G2: IC50, RPMI 1640 medium, 10% FBS
Text: as §1, §2

HPEKp cells = experiment: proliferation assay with human epidermal keratinocyte progenitors (HPEKp), selectivity versus MDA-MB-231
Text: as §1, §2

TANQUE cells = experiment: alamarBlue proliferation assay with TANQUE cells; details: read-out: Activity on TANOUE: IC50, RPMI 1640 medium, 10% FBS
Text: as §1, §2

NB-4 cells = experiment: alamarBlue proliferation assay with NB-4 cells; details: read-out: Activity on NB-4: IC50, RPMI 1640 medium, 10% FBS
Text: as §1, §2

HCT-116 cells = experiment: alamarBlue proliferation assay with HCT-116 cells; details: read-out: Activity on HCT-116: IC50, McCoy's 5A medium, 10% FBS
Text: as §1, §2

BHY cells = experiment: alamarBlue proliferation assay with BHY cells; details: read-out: Activity on BHY: IC50, DMEM medium, 10% FBS
Text: as §1, §2

A-549 cells = experiment: alamarBlue proliferation assay with A-549 cells; details: read-out: Activity on A-549: IC50, DMEM medium, 10% FBS
Text: as §1, §2

[1] = tested on: mitochondrial transmembrane potential Δψm in A-549 cells; experiment: mitochondrial activity assay (TMRE staining, mitochondrial transmembrane potential) on A-549 cells
Method: A decrease in mitochondrial function can be assessed by the relative quantification of the mitochondrial transmembrane potential Δψm. The Adm-decreasing activities of compounds falling under general formula (I) were investigated with tetramethylrhodamine ethyl ester (TMRE) staining on A-549 cells. Access and cultivation method of A-549 cells are as described above. To this end, according cells were seeded into 96-well plates suitable for fluorescence assays (Greiner Bio-One, #655090) at a cell number of 45'000 cells per well. Cells were incubated over night at 37 °C and 5% CO2. This was followed by a complete medium change with 100 μL per well of fresh culture medium pre-warmed to 37 °C. Cells were further incubated at 37 °C and 5% CO2 for three hours. Then the cells were treated with compounds at 10 μM final concentration by adding 100 μL per well of a 2× compound working solution of 1:50 pre-diluted compound DMSO stock-solutions in Hank's Balanced Salt Solution (HBSS, Fisher Scientific, Gibco™ #14025). Cells were incubated for 2 hours and 40 minutes at 37 °C and 5% CO2. Then cells were treated with TMRE (AAT-Bioquest, #22220) at 300 nM final concentration by adding 20 μL per well of a 10×TMRE working solution from a 1:5 pre-diluted TMRE DMSO stock-solution in H2O (Water For Injection, WFI, Fisher Scientific, Gibco™ #A12873). Cells were incubated for further 20 minutes at room temperature in the dark, gently shaking on an orbital shaker (IKA, MTS 2/4 Digital Shaker, shaking at 300 rpm). Extracellular TMRE signal was quenched by adding 20 μL per well of a 1.6 mM solution of Brilliant Black BN (Carl Roth, #7643) in H2O. Cells were further incubated for 60 min at room temperature. Then the readout was taken with a multi-well plate-reader (Tecan Spark®) in the fluorescence mode using a filter for excitation at 535 nm (band width 25 nm) and for emission at 595 nm (band width 35 nm) without plate lid. Treatment for strong decrease in Δψm with the commercial mitochondrial uncoupler compound 2,4-dinitrophenol (DNP, Sigma Aldrich-Merck #34334) at a final concentration of 50 μM was included on every plate for assay quality control.
The assays were performed in two independent biological replicates, each containing three technical replicates for every condition. For every individual plate, the measured fluorescence intensity values of the conditions with compound treatment were normalized against the corresponding equally weighted arithmetic mean of the fluorescence intensity values of the three DMSO treated control wells in order to obtain the relative values to a reference level of 1.0.
The weighted arithmetic mean and the combined standard deviation as defined in the present invention was calculated for each compound as described above. The DNP control decreased the relative mitochondrial transmembrane potential Δψm in A-549 cells to 0.2.

LL/2 cells = experiment: alamarBlue proliferation assay with LL/2 cells; details: read-out: Activity on LL/2: IC50; LL/2 murine Lewis lung carcinoma cells, DMEM medium, 10% FBS
Text: as §1, §2

NCI-H460 cells = experiment: alamarBlue proliferation assay with NCI-H460 cells; details: read-out: Activity on NCI-H460: IC50, RPMI 1640 medium, 10% FBS
Text: as §1, §2

[2] = read-out: Activity on MDA-MB-231 (IC50), glucose-free Leibovitz's L-15, 10% FBS, day 5, alamarBlue
[3] = read-out: Activity (MDA): antiproliferative activity on MDA-MB-231 cells, IC50 category, MDA-MB-231 cells cultivated in glucose-free Leibovitz's L-15 medium
[4] = read-out: Activity (HPEK): antiproliferative activity on HPEK cells, IC50 category, HPEK cells cultivated in CnT-Prime medium
[5] = read-out: Activity (MDA), MDA-MB-231 cells, antiproliferative activity, class by IC50
[6] = read-out: Activity (HPEK), HPEK cells (HPEKp), antiproliferative activity, class by IC50

SMILES | IC50 (MDA-MB-231 cells; [2]) [µM] | IC50 (A-431 cells) [µM] | IC50 (HEP-G2 cells) [µM] | IC50 (MDA-MB-231 cells; [3]) [µM] | IC50 (HPEKp cells; [4]) [µM] | also measured
CC(C)N1CCN(C(=O)c2ccc(Oc3ccc(C4CCC5(CC4)OCCO5)cc3C=O)cc2)CC1 | ≤ 5 | ≤ 1 | ≤ 5 | – | – | –
O=Cc1cc(C2CCC3(CC2)OCCO3)ccc1Oc1ccc(C(=O)N2CCN(CCO)CC2)cc1 | ≤ 5 | ≤ 1 | ≤ 5 | – | – | –
O=Cc1cc(C2CCC3(CC2)OCCO3)ccc1Oc1ccc(C(=O)N2CCN(Cc3ccc(C(F)(F)F)cc3)CC2)cc1 | ≤ 0.2 | ≤ 0.2 | ≤ 0.2 | < 1 | < 5 | –
C#CCN1CCN(C(=O)c2ccc(Oc3ccc(C4CCC5(CC4)OCCO5)cc3CO)cc2)CC1 | ≤ 5 | ≤ 20 | ≤ 20 | < 5 | > 10 | –
COc1ccc(CN2CCN(C(=O)c3ccc(Oc4ccc(C5CCC(OC)CC5)cc4O)cc3)CC2)cc1 (centres unmarked) | – | – | ≤ 0.2 | – | – | IC50 (TANQUE cells): ≤ 1 µM; IC50 (NB-4 cells): ≤ 1 µM; IC50 (HCT-116 cells): ≤ 1 µM; IC50 (BHY cells): ≤ 0.2 µM; IC50 (A-549 cells): ≤ 0.2 µM; Activity: relative mitochondrial transmembrane potential Δψm ([1]; A-549 cells, compounds at 10 μM, 2 h 40 min, TMRE staining, relative to DMSO = 1.0): Δψm ≤0.7
O=C(c1ccc(Oc2ccc(C3CCC4(CC3)OCCO4)cc2CO)cc1)N1CCN(CCc2ccccc2)CC1 | ≤ 5 | ≤ 5 | ≤ 5 | < 5 | > 10 | –
O=C(c1ccc(Oc2ccc(C3CCC4(CC3)OCCO4)cc2CO)cc1)N1CCN(CC2CCCC2)CC1 | ≤ 5 | ≤ 5 | ≤ 5 | < 5 | > 10 | IC50 (TANQUE cells): ≤ 5 µM; IC50 (NB-4 cells): ≤ 5 µM; IC50 (HCT-116 cells): ≤ 5 µM; IC50 (BHY cells): ≤ 5 µM; IC50 (LL/2 cells): ≤ 5 µM
COc1cc(C2CCCCC2)cc(CO)c1Oc1ccc(C(=O)N2CCN(Cc3ccccc3)CC2)cc1 | ≤ 5 | ≤ 5 | ≤ 5 | < 5 | > 10 | –
O=C(c1ccc(Oc2ccc(C3CCC4(CC3)OCCO4)cc2CO)cc1)N1CCN(Cc2cccc3cccnc23)CC1 | ≤ 0.2 | ≤ 20 | ≤ 1 | < 1 | < 10 | –
O=Cc1cc(C2CCC3(CC2)OCCO3)ccc1Oc1ccc(C(=O)N2CCN(CCc3ccccc3)CC2)cc1 | ≤ 5 | ≤ 5 | ≤ 20 | – | – | –
CC(C)N1CCN(C(=O)c2ccc(Oc3ccc(C4CCC5(CC4)OCCO5)cc3CO)cc2)CC1 | ≤ 5 | ≤ 20 | ≤ 20 | < 5 | > 10 | –
C#CCN1CCN(C(=O)c2ccc(Oc3ccc(C4CCC(=O)CC4)cc3CO)cc2)CC1 | ≤ 5 | ≤ 20 | – | < 5 | > 10 | –
O=[N+]([O-])c1ccc(O)c([N+](=O)[O-])c1 | – | – | – | – | – | relative mitochondrial transmembrane potential Δψm ([1]; DMSO control = 1.0, compounds 10 μM, DNP 50 μM, TMRE, A-549): 0.2
O=Cc1cc(C2CCC3(CCCC3)CC2)ccc1Oc1ccc(C(=O)N2CCN(Cc3ccccc3)CC2)cc1 | ≤ 0.2 | ≤ 5 | ≤ 1 | – | – | –
O=C(c1ccc(Oc2ccc(C3CCCCC3)cc2CO)cc1)N1CCN(Cc2ccccc2)CC1 | ≤ 0.2 | – | ≤ 1 | – | – | IC50 (MDA-MB-231 cells; [5]): < 1 µM; IC50 (NCI-H460 cells): ≤ 5 µM; IC50 (A-549 cells): ≤ 0.2 µM; IC50 (HPEKp cells; [6]): < 10 µM
O=C(c1ccc(Oc2ccc(C3CCC4(CC3)OCCO4)cc2CO)cc1)N1CCN(Cc2cccc3ccccc23)CC1 | ≤ 1 | ≤ 5 | ≤ 5 | < 1 | < 5 | –
O=C(c1ccc(Oc2ccc(C3CCCCC3)cc2CO)cn1)N1CCN(Cc2ccc(Cl)cc2)CC1 | ≤ 0.2 | – | ≤ 0.2 | – | – | IC50 (MDA-MB-231 cells; [5]): < 1 µM; IC50 (TANQUE cells): ≤ 0.2 µM; IC50 (NB-4 cells): ≤ 0.2 µM; IC50 (HCT-116 cells): ≤ 0.2 µM; IC50 (BHY cells): ≤ 0.2 µM; IC50 (NCI-H460 cells): ≤ 0.2 µM; IC50 (A-549 cells): ≤ 0.2 µM; IC50 (LL/2 cells): ≤ 5 µM; IC50 (HPEKp cells; [6]): < 5 µM
